Measurements from patent US10144715B2, “Piperazine derivatives as liver X receptor modulators” (priority 2014, dated 2018).
Like-named read-outs stand apart in the source and are kept apart here.

Sequences of proteins named here, by UniProt entry; tags and fusion partners are left off. Residues count along the entry.
UniProt P55055, 222-460 limits assumed: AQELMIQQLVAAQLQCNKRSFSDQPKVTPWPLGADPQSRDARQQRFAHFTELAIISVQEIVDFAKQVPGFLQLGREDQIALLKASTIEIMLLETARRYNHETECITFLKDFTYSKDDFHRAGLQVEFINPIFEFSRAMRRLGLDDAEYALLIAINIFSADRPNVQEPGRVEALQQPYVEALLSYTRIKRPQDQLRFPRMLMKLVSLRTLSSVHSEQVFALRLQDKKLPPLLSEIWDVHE
UniProt Q13133, 209-447: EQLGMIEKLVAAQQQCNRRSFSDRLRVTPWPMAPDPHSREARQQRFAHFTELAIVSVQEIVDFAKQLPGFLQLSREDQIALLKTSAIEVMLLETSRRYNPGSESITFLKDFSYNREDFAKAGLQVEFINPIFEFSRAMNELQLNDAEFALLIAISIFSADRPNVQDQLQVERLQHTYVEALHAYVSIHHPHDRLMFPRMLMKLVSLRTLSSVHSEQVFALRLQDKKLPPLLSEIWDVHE

Experiments:
[1] = molecular target: T1, Gal4 DNA binding domain fused to the LBD of LXRβ in HEK293 cells (Homo sapiens (Human), UniProt P55055); test: cell-based
LXR β LBD protein [2] = molecular target: T2, LXR β LBD protein (Homo sapiens (Human), UniProt P55055); test: biochemical; assay type: biochemical; details: for EC50: read-out: FRET LXRβ EC50
[3] = molecular target: T1, Gal4 DNA binding domain fused to the LBD of LXRβ in HEK293 cells; test: cell-based; remark: listed apart in the source
[4] = molecular target: T3, Gal4 DNA binding domain fused to the LBD of LXRα in HEK293 cells (Homo sapiens (Human), UniProt Q13133); test: LXR luciferase transcriptional reporter gene assay, agonist mode, LXRα; assay type: cell-based; details: for Cell LXRα efficacy: agonist mode
LXR α LBD protein [5] = molecular target: T4, LXR α LBD protein (Homo sapiens (Human), UniProt Q13133); test: LXR α radioligand binding assay (SPA, competition with [3H]TO901317); details: read-out: LXRα Binding Ki
LXR β LBD protein [6] = molecular target: T2, LXR β LBD protein; details: read-out: FRET LXRβ IC50; antagonist mode, 250 nM T0901317, coactivator recruitment TR-FRET
LXR α LBD protein [7] = molecular target: T4, LXR α LBD protein; test: Human LXRα coactivator recruitment FRET assay, agonist mode; assay type: biochemical
LXR α LBD protein [8] = molecular target: T4, LXR α LBD protein; details: read-out: FRET LXRα IC50; antagonist mode, 250 nM T0901317, coactivator recruitment TR-FRET
[9] = molecular target: T3, Gal4 DNA binding domain fused to the LBD of LXRα in HEK293 cells; test: LXR luciferase transcriptional reporter gene assay, antagonist mode (200 nM T0901317), LXRα; assay type: cell-based; details: read-out: Cell LXRα IC50
LXR β LBD protein [10] = molecular target: T2, LXR β LBD protein; details: Biological Test Example 1; read-out: LXRβ Binding Ki
[11] = Biological Test Example 3, agonist mode

## CS(=O)(=O)c1cccc(N2CCN(CC3CCN(CC(F)(F)F)CC3)[C@@H](c3ccccc3)C2)c1 (single isomer, unassigned) [48-52]
[1]
  EC50: 0.129 µM
[1]; Biological Test Example 2, agonist mode
  Cell LXRβ efficacy: 13%
LXR β LBD protein [2]; [11]
  FRET LXRβ efficacy: 30%
  EC50: 0.068 µM
[3]
  IC50: 0.843 µM

## CC(C)[C@@H]1CN(c2ccc(F)c(S(C)(=O)=O)c2)CCN1C(=O)OCC(F)(F)F [5-4, 2,2,2-trifluoroethyl (R)-4-(4-fluoro-3-(methylsulfonyl)phenyl)-2-isopropylpiperazine-1-carboxylate]
[4]
  EC50: 4.91 µM
  Cell LXRα efficacy: 40%
LXR α LBD protein [5]
  Ki: 2.44 µM

## CC(C)[C@@H]1CN(c2cccc(S(C)(=O)=O)c2)CCN1C(=O)OCC(C)(C)C [5-6, neopentyl (R)-2-isopropyl-4-(3-(methylsulfonyl)phenyl)piperazine-1-carboxylate]
[1]
  EC50: 0.392 µM
[1]; agonist mode
  Cell LXRβ efficacy: 39%
LXR β LBD protein [2]; agonist mode
  FRET LXRβ efficacy: 58%
  EC50: 0.014 µM
[3]
  IC50: 2.96 µM

## CC(C)[C@@H]1CN(c2cccc(S(C)(=O)=O)c2)CCN1c1ncccn1 [7-2, (R)-2-(2-isopropyl-4-(3-(methylsulfonyl)phenyl)piperazin-1-yl)pyrimidine]
[1]
  EC50: > 20 µM
LXR β LBD protein [2]; agonist mode
  FRET LXRβ efficacy: 31%
  EC50: 0.123 µM
[3]
  IC50: 1.62 µM

## CC(C)[C@@H]1CN(c2cccc(S(C)(=O)=O)c2)CCN1c1ccnc(C(F)(F)F)n1 [7-50, (R)-4-(2-isopropyl-4-(3-(methylsulfonyl)phenyl)piperazin-1-yl)-2-(trifluoromethyl)pyrimidine]
[1]
  EC50: 0.257 µM
[1]; agonist mode
  Cell LXRβ efficacy: 37%
LXR β LBD protein [2]; agonist mode
  FRET LXRβ efficacy: 84%
  EC50: 0.019 µM
[3]
  IC50: 3.74 µM

## CC(C)[C@@H]1CN(c2ccc(F)c(S(C)(=O)=O)c2)CCN1c1nccc(OCC(F)(F)F)n1 [44-3, (R)-2-(4-(4-fluoro-3-(methylsulfonyl)phenyl)-2-isopropylpiperazin-1-yl)-4-(2,2,2-trifluoroethoxy)pyrimidine]
LXR α LBD protein [5]
  Ki: 0.809 µM

## Cc1nc(C(F)(F)F)ccc1CN1CCN(c2cccc(S(C)(=O)=O)c2)CC1c1ccccc1 (stereo not shown) [46-47, 1-((2-methyl-6-(trifluoromethyl)pyridin-3-yl)methyl)-4-(3-(methylsulfonyl)phenyl)-2-phenylpiperazine]
LXR β LBD protein [6]
  IC50: > 50 µM
LXR β LBD protein [2]; agonist mode
  FRET LXRβ efficacy: 54%
  EC50: 0.817 µM
LXR α LBD protein [7]
  EC50: 4.52 µM
LXR α LBD protein [8]
  IC50: > 50 µM

## Cc1cc(CN2CCN(c3cccc(S(C)(=O)=O)c3)CC2c2ccccc2)cnc1C(F)(F)F (stereo not shown) [46-48, 1-((5-methyl-6-(trifluoromethyl)pyridin-3-yl)methyl)-4-(3-(methylsulfonyl)phenyl)-2-phenylpiperazine]
[1]
  EC50: 0.957 µM
[1]; agonist mode
  Cell LXRβ efficacy: 34%
LXR β LBD protein [6]
  IC50: > 50 µM
LXR β LBD protein [2]; agonist mode
  FRET LXRβ efficacy: 55%
  EC50: 0.443 µM
LXR α LBD protein [7]
  EC50: 3.01 µM
LXR α LBD protein [8]
  IC50: > 50 µM

## CS(=O)(=O)c1ccc(F)c(N2CCN(Cc3ccc(C(F)(F)F)nc3)C(c3ccccc3)C2)c1 (stereo not shown) [46-50, 4-(2-fluoro-5-(methylsulfonyl)phenyl)-2-phenyl-1-((6-(trifluoromethyl)pyridin-3-yl)methyl)piperazine]
LXR β LBD protein [6]
  IC50: > 50 µM
LXR β LBD protein [2]; agonist mode
  FRET LXRβ efficacy: 67%
  EC50: 1.91 µM

## COC(=O)c1ccc(N2CCN(Cc3ccc(C(F)(F)F)nc3)C(c3ccccc3)C2)cc1S(C)(=O)=O (stereo not shown) [46-59, methyl 2-(methylsulfonyl)-4-(3-phenyl-4-((6-(trifluoromethyl)pyridin-3-yl)methyl)piperazin-1-yl)benzoate]
LXR β LBD protein [6]
  IC50: > 50 µM
LXR β LBD protein [2]; agonist mode
  FRET LXRβ efficacy: 70%
  EC50: 3.1 µM

## CS(=O)(=O)c1cccc(N2CCN(Cc3ccc(C(F)(F)F)cn3)[C@H](c3ccccc3)C2)c1 [46-63, (R)-4-(3-(methylsulfonyl)phenyl)-2-phenyl-1-((5-(trifluoromethyl)pyridin-2-yl)methyl)piperazine]
[4]; read-out: Cell LXRα EC50
  EC50: > 20 µM
LXR α LBD protein [7]
  EC50: 12.4 µM
  FRET LXRα efficacy: 30%

## CS(=O)(=O)c1cccc(N2CCN(Cc3ccc(C(F)(F)F)cn3)[C@@H](c3ccccc3)C2)c1 [46-64, (S)-4-(3-(methylsulfonyl)phenyl)-2-phenyl-1-((5-(trifluoromethyl)pyridin-2-yl)methyl)piperazine]
[4]; read-out: Cell LXRα EC50
  EC50: > 20 µM
LXR α LBD protein [7]
  EC50: 10.4 µM
  FRET LXRα efficacy: 23%
LXR α LBD protein [5]
  Ki: > 3.33 µM

## CS(=O)(=O)c1cccc(N2CCN(Cc3ccc(C(F)(F)F)o3)[C@@H](c3ccccc3)C2)c1 [46-66, (S)-4-(3-(methylsulfonyl)phenyl)-2-phenyl-1-((5-(trifluoromethyl)furan-2-yl)methyl)piperazine]
[4]; read-out: Cell LXRα EC50
  EC50: 4.58 µM
LXR α LBD protein [7]
  EC50: 1.66 µM
  FRET LXRα efficacy: 20%
LXR α LBD protein [5]
  Ki: 1.41 µM

## CC1(C)CCC(O)(CN2CCN(c3cccc(S(C)(=O)=O)c3)C[C@H]2c2ccccc2)CC1 [53-2, (R)-4,4-dimethyl-1-((4-(3-(methylsulfonyl)phenyl)-2-phenylpiperazin-1-yl)methyl)cyclohexan-1-ol]
[4]; read-out: Cell LXRα EC50
  EC50: 6.74 µM
LXR α LBD protein [5]; Biological Test Example 1
  Ki: 1.76 µM

## CC(C)[C@@H]1CN(c2ccc(F)c(S(C)(=O)=O)c2)CCN1C(=O)OC1CC(F)(F)C1(F)F (stereo partly drawn) [Cpd No 5-1, 2,2,3,3-tetrafluorocyclobutyl (2R)-4-(4-fluoro-3-(methylsulfonyl)phenyl)-2-isopropylpiperazine-1-carboxylate]
[4]
  EC50: 1.05 µM
  Cell LXRα efficacy: 79%
LXR α LBD protein [5]
  Ki: 0.483 µM

## CC(C)[C@@H]1CN(c2cccc(S(C)(=O)=O)c2)CCN1c1ncc(Cl)cn1 [Cpd No 7-4, (R)-5-chloro-2-(2-isopropyl-4-(3-(methylsulfonyl)phenyl)piperazin-1-yl)pyrimidine]
[1]
  EC50: 0.185 µM
[1]; agonist mode
  Cell LXRβ efficacy: 46%
LXR β LBD protein [2]; agonist mode
  FRET LXRβ efficacy: 84%
  EC50: 0.017 µM
[3]
  IC50: 6.58 µM

## CC(C)[C@@H]1CN(c2cccc(S(C)(=O)=O)c2)CCN1c1ccc(C(F)(F)F)cn1 [Cpd No 7-35, (R)-2-isopropyl-4-(3-(methylsulfonyl)phenyl)-1-(5-(trifluoromethyl)pyridin-2-yl)piperazine]
[1]
  EC50: 0.039 µM
[1]; agonist mode
  Cell LXRβ efficacy: 96%
LXR β LBD protein [2]; agonist mode
  FRET LXRβ efficacy: 171%
  EC50: 0.004 µM
[3]
  IC50: > 10 µM

## CC(C)[C@@H]1CN(c2ccc(F)c(S(C)(=O)=O)c2)CCN1c1ncc(C(=O)N(C)C)c(C(F)(F)F)n1 [Cpd No 17-1, (R)-2-(4-(4-fluoro-3-(methylsulfonyl)phenyl)-2-isopropylpiperazin-1-yl)-N,N-dimethyl-4-(trifluoromethyl)pyrimidine-5-carboxamide]
[4]; read-out: Cell LXRα EC50
  EC50: 6.35 µM
LXR α LBD protein [5]
  Ki: 1.11 µM
[9]
  IC50: 2.35 µM

## CS(=O)(=O)c1cc(N2CCN(Cc3ccc(C(F)(F)F)nc3)C(c3ccccc3)C2)ccc1CO (stereo not shown) [Cpd No 47-1, (2-(methylsulfonyl)-4-(3-phenyl-4-((6-(trifluoromethyl)pyridin-3-yl)methyl)piperazin-1-yl)phenyl)methanol]
[1]
  EC50: 5.14 µM
[1]; agonist mode
  Cell LXRβ efficacy: 39%
LXR β LBD protein [6]
  IC50: > 50 µM
LXR β LBD protein [2]; agonist mode
  FRET LXRβ efficacy: 63%
  EC50: 0.259 µM

## CC(C)[C@H]1CN(c2ccc(C#N)c(S(C)(=O)=O)c2)CCN1C[C@H]1CC[C@@H](C(F)(F)F)CC1 [Cpd No 50-1, 4-((S)-3-isopropyl-4-(((1s,4R)-4-(trifluoromethyl)cyclohexyl)methyl)piperazin-1-yl)-2-(methylsulfonyl)benzonitrile]
[1]; Biological Test Example 2, agonist mode, read-out: Cell LXRβ EC50
  EC50: 0.076 µM
LXR β LBD protein [10]
  Ki: 0.006 µM

## CC1(C)CCC(O)(CN2CCN(c3cccc(S(C)(=O)=O)c3)C[C@@H]2c2ccccc2)CC1 [Cpd No 53-1, (S)-4,4-dimethyl-1-((4-(3-(methylsulfonyl)phenyl)-2-phenylpiperazin-1-yl)methyl)cyclohexan-1-ol]
[4]; read-out: Cell LXRα EC50
  EC50: 3.03 µM
LXR α LBD protein [5]; Biological Test Example 1
  Ki: 0.971 µM
